From US4483989A, “Synthesis of pyrido[4,3-b]carbazole derivatives” (priority 1973, dated 1984)

Settings: mouse, in vivo, ip
Description: The mice were randomized in each experimental series. A first routine experiment enable the death rate by toxicity to be determined and thus established the sublethal doses.
To evaluate the therapeutic activity of the compounds of the invention, doses of said compound were expressed basing them on the 30 days sublethal dose which was fixed at 1.

9-hydroxy-2(β-diisopropylamino-ethyl)-ellipticiniu acetate
DLo (I.P.): 10 mg/kg
